{"source": "patent US20240293430A1", "about": "“WITHAFERIN A AND IMMUNE CHECKPOINT BLOCKER COMBINATION THERAPIES” (University of South Florida, priority 2023, published 2024)", "tested_on": "WFA-induced PD-L1 upregulation in NSCLC cells", "test": "Pharmacologic inhibitors added to WFA, PD-L1 by flow cytometry", "format": "cell-based, mouse (LLC), human (H1650", "settings": "WFA + inhibitor, 24 h; STATTIC: LLC, H1650; PX-478: LLC; brusatol: LLC, H1650, A549", "data": [{"smiles": "N[C@@H](Cc1ccc([N+]([O-])(CCCl)CCCl)cc1)C(=O)O", "values": [{"measurement": "effect on WFA-induced PD-L1 upregulation", "result": "neither STATTIC nor PX-478 were able to reverse"}]}]}
